# Measurements: ChEMBL document CHEMBL4251749
# Protein sequences, listed by entry. Tags and fused reporters are not part of them. Lines headed by an entry give the natural chain unless they say otherwise; changes in a name come on top.
# UniProt O42275: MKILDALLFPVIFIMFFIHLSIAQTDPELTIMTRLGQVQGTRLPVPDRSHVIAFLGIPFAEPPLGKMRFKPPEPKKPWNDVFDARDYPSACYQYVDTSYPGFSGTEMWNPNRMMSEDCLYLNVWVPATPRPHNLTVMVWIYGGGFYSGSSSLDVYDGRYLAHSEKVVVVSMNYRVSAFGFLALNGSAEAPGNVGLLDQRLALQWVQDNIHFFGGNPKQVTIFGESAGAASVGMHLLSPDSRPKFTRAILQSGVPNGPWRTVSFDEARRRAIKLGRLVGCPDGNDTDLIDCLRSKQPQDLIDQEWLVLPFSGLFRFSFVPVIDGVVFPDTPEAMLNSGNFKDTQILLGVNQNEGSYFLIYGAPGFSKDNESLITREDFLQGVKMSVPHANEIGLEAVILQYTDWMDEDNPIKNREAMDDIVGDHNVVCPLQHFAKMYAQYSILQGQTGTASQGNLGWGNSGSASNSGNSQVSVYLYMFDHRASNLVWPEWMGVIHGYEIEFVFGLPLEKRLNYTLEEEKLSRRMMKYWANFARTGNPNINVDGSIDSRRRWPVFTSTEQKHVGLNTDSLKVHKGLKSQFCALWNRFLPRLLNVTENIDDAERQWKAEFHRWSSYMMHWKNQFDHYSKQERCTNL
# UniProt P22303: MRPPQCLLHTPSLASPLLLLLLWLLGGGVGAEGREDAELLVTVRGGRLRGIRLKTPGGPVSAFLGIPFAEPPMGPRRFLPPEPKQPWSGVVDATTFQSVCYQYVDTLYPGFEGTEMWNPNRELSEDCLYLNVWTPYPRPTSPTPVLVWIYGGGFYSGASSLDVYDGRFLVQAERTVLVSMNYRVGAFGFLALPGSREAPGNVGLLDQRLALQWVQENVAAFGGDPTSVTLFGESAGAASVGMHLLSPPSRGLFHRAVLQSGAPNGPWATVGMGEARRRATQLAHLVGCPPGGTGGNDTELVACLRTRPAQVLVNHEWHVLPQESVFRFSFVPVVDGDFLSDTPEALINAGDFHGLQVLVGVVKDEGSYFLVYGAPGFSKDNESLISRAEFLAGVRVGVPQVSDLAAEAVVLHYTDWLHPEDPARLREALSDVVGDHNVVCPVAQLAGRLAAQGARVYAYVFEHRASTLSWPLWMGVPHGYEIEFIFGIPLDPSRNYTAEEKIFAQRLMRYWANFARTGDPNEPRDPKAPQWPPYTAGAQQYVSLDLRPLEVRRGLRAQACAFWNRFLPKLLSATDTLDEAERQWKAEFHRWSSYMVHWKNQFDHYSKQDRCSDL
# Active and inactive are the calls of the source. The rule behind the calls is not given here.
# Columns and labels:
# [1] = target: Acetylcholinesterase (Electrophorus electricus) (UniProt O42275); assay: Reactivation of methylphosphonate-aged electric eel AChE assessed as enzyme reactivation by measuring residual activity at 0.2 to 4 mM using acetylthiocholine as substrate after 1 day in presence of NH4F and 2-PAM at pH 8 and at 37 degC by Ellman's assay
# [2] = target: Acetylcholinesterase (Electrophorus electricus) (UniProt O42275); assay: Reactivation of isopropyl phosphate-aged electric eel AChE assessed as enzyme reactivation by measuring residual activity at 0.2 to 4 mM using acetylthiocholine as substrate after 1 day in presence of NH4F and 2-PAM at pH 8 and at 37 degC by Ellman's assay
# [3] = target: Acetylcholinesterase (Electrophorus electricus) (UniProt O42275); assay: Reactivation of EMP-inhibited electric eel AChE assessed as enzyme reactivation by measuring residual activity at 4 mM at pH 8 after 24 hrs using acetylthiocholine as substrate by Ellman's assay relative to control
# [4] = target: Acetylcholinesterase (Electrophorus electricus) (UniProt O42275); assay: Resurrection of methylphosphonate-aged electric eel AChE assessed as enzyme reactivation rate by measuring residual activity at 4 mM using acetylthiocholine as substrate at pH 8 after 4 days by Ellman's assay relative to control
# [5] = target: Acetylcholinesterase (Electrophorus electricus) (UniProt O42275); assay: Resurrection of isopropyl phosphate-aged electric eel AChE assessed as realkylated enzyme level at 100 mM in presence of trypsin by LC-MS/MS based bottom-up proteomics analysis (reference value: 0%)
# [6] = target: Acetylcholinesterase (Homo sapiens) (UniProt P22303); assay: Resurrection of isopropyl phosphate-aged human recombinant AChE assessed as enzyme reactivation rate by measuring residual activity at 4 mM at pH 9 using acetylthiocholine as substrate after 7 days by Ellman's assay relative to control
# [7] = target: Acetylcholinesterase (Electrophorus electricus) (UniProt O42275); assay: Resurrection of methylphosphonate-aged electric eel AChE assessed as enzyme reactivation by measuring residual activity at 4 mM using acetylthiocholine as substrate at pH 9 after 1 day by Ellman's assay relative to control
# [8] = target: Acetylcholinesterase (Homo sapiens) (UniProt P22303); assay: Resurrection of isopropyl phosphate-aged human recombinant AChE assessed as enzyme reactivation by measuring residual activity at 4 mM at pH 9 using acetylthiocholine as substrate after 7 days by Ellman's assay relative to control
# [9] = target: Acetylcholinesterase (Electrophorus electricus) (UniProt O42275); assay: Resurrection of methylphosphonate-aged electric eel AChE assessed as realkylated enzyme level at 100 mM in presence of trypsin by LC-MS/MS based bottom-up proteomics analysis (reference value: 0%)
# [10] = target: Acetylcholinesterase (Electrophorus electricus) (UniProt O42275); assay: Resurrection of isopropyl phosphate-aged electric eel AChE assessed as enzyme reactivation by measuring residual activity at 4 mM using acetylthiocholine as substrate at pH 9 after 1 day by Ellman's assay relative to control
# [11] = target: Acetylcholinesterase (Electrophorus electricus) (UniProt O42275); assay: Resurrection of isopropyl phosphate-aged electric eel AChE assessed as native enzyme level at 100 mM in presence of trypsin by LC-MS/MS based bottom-up proteomics analysis (reference value: 0%)
# [12] = target: Acetylcholinesterase (Electrophorus electricus) (UniProt O42275); assay: Resurrection of methylphosphonate-aged electric eel AChE assessed as native enzyme level at 100 mM in presence of trypsin by LC-MS/MS based bottom-up proteomics analysis (reference value: 0%)
# [13] = target: Acetylcholinesterase (Electrophorus electricus) (UniProt O42275); assay: Resurrection of isopropyl phosphate-aged electric eel AChE assessed as enzyme reactivation rate by measuring residual activity at 4 mM using acetylthiocholine as substrate at pH 8 after 4 days by Ellman's assay relative to control
# [14] = target: Acetylcholinesterase (Electrophorus electricus) (UniProt O42275); assay: Resurrection of isopropyl phosphate-aged electric eel AChE assessed as aged enzyme level at 100 mM in presence of trypsin by LC-MS/MS based bottom-up proteomics analysis (reference value: 100%)
# [15] = target: Acetylcholinesterase (Electrophorus electricus) (UniProt O42275); assay: Resurrection of isopropyl phosphate-aged electric eel AChE assessed as enzyme reactivation by measuring residual activity at 4 mM using acetylthiocholine as substrate at pH 8 after 4 days by Ellman's assay relative to control
# [16] = target: Acetylcholinesterase (Electrophorus electricus) (UniProt O42275); assay: Resurrection of methylphosphonate-aged electric eel AChE assessed as enzyme reactivation by measuring residual activity at 4 mM using acetylthiocholine as substrate at pH 8 after 4 days by Ellman's assay relative to control
# [17] = target: Acetylcholinesterase (Electrophorus electricus) (UniProt O42275); assay: Resurrection of methylphosphonate-aged electric eel AChE assessed as aged enzyme level at 100 mM in presence of trypsin by LC-MS/MS based bottom-up proteomics analysis (reference value: 100%)
# [18] = target: Acetylcholinesterase (Electrophorus electricus) (UniProt O42275); assay: Reactivation of EMP-inhibited electric eel AChE assessed as enzyme reactivation by measuring residual activity at 0.4 mM at pH 8 after 1 hr using acetylthiocholine as substrate by Ellman's assay relative to control
SMILES,Activity [1],Activity [2],other results
CCN(CC)Cc1ncccc1O,inactive,inactive,
Oc1nc2ccccc2cc1CN1CCCC1,inactive,inactive,
Oc1cccnc1CN1CCNCC1,inactive,inactive,
COc1cc(CN2CCCC2)ccc1O,inactive,inactive,
Oc1cccnc1CN1CCCCC1,inactive,inactive,
CCCN(C)Cc1ncccc1O,inactive,inactive,
CC(C)CN(C)Cc1ncccc1O,inactive,inactive,
CCN(C)Cc1ncccc1O,Active,Active,Activity [3]: 64 to 80%
Oc1cccnc1CN1CCOCC1,inactive,inactive,
Oc1cc(CN2CCCC2)c2ccccc2n1,inactive,inactive,
Oc1cccnc1CN1CCCC1,Active,Active,Activity [3]: 64 to 80%; Activity [4]: 0.32 %/hr; Activity [5]: 0%; Activity [6]: 2.5 %/hr; Activity [7]: 20%; Activity [8]: 18%; Activity [9]: 0%; Activity [10]: Active; Activity [11]: 15.4%; Activity [12]: 2.1%; Activity [13]: 0.2 %/hr; Activity [14]: 84.6%; Activity [15]: 20.4%; Activity [16]: 32.7%; Activity [17]: 97.9%
c1ccc(CN2CCCC2)nc1,inactive,inactive,
c1cc2c(cc1CN1CCCC1)OCO2,inactive,inactive,
Oc1cnc2ccccc2c1CN1CCCC1,inactive,Active,Activity [3]: 64 to 80%
CC(C)N(C)Cc1ncccc1O,inactive,inactive,
Oc1ccc(CN2CCCC2)cn1,inactive,inactive,
Oc1cccnc1CN1CCC(F)(F)C1,inactive,inactive,
Oc1cccnc1,,,Activity [18]: Active
Oc1cccnc1CN1CCN(Cc2ncccc2O)CC1,inactive,inactive,
